This note sets out measurements from patent US7601737B2, “Isotopically substituted proton pump inhibitors” (priority 2005, dated 2009).

This data set has as its system human cryopreserved hepatocytes. The text has this:
5-hydroxy-omeprazole was quantified using LC-MS/MS.

Turning to `[2H]C([2H])([2H])Oc1ccc2[nH]c([S@@+]([O-])Cc3ncc(C)c(OC([2H])([2H])[2H])c3C)nc2c1.[Na]` [Example 49, (S)-5-Trideuteriomethoxy-2-[(3,5-dimethyl-4-trideuteriomethoxy-2-pyridinyl)methylsulfinyl]-1H-benzimidazole sodium salt], the “Difference in 5-hydroxy-omeprazole formation rate compared to example 48” value is “no difference in the formation rate”.
